Experimental data published in ChEMBL document CHEMBL4842367, “Strategies toward Discovery of Potent and Orally Bioavailable Proteolysis Targeting Chimera Degraders of Androgen Receptor for the Treatment of Prostate Cancer” (J Med Chem, 2021).
Active and inactive are the calls of the source. The calls are words filed in the database; no cut-off is given here.

Amino acid sequences for entries named in this document (tags omitted). A change or cut given only in a name is not applied to a line headed by its entry.
UniProt P10275: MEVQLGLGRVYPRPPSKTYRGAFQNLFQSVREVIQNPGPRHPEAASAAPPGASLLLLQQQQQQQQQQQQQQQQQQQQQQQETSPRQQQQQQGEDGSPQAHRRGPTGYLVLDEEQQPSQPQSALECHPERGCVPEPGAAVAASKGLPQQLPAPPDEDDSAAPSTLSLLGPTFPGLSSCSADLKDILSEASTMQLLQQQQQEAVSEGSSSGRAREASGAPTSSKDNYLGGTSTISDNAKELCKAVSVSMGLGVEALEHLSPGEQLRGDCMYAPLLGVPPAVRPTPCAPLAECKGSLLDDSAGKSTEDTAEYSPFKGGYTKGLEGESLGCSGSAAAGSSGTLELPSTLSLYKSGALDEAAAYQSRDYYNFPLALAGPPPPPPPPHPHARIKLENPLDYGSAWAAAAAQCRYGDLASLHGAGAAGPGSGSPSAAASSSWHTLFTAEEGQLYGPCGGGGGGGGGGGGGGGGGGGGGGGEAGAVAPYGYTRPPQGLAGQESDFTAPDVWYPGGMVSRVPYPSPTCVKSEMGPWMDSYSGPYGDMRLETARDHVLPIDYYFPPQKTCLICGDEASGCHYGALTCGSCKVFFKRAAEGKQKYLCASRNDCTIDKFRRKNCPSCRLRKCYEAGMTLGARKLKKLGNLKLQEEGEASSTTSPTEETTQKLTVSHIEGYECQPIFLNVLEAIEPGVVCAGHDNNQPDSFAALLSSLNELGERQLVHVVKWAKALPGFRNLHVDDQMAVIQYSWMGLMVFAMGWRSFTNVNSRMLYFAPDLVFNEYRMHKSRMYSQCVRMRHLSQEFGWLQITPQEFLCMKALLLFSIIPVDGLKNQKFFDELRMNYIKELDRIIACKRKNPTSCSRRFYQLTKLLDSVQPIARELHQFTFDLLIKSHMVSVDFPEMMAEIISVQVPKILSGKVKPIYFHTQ
UniProt Q96SW2: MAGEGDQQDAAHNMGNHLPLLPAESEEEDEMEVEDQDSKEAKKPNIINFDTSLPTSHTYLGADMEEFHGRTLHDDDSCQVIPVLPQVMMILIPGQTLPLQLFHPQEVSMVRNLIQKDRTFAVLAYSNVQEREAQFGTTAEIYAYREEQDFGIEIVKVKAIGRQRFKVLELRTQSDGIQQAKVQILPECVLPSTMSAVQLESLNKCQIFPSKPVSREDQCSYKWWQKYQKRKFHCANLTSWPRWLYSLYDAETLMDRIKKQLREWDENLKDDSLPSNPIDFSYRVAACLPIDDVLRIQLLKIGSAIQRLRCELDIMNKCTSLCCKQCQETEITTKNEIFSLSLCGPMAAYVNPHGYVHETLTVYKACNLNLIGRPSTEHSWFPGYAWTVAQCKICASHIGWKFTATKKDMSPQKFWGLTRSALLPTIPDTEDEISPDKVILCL

How the values were obtained:
Type in all cases: cell-based
[1] = target: Protein cereblon/Androgen receptor (Homo sapiens, UniProt P10275+Q96SW2); assay: Protac activity at CRBN/AR in human VCaP cells assessed as reduction in AR protein level at 100 nM measured after 3 hrs by western blot analysis
[2] = system: Protein cereblon/Androgen receptor (Homo sapiens), P10275+Q96SW2 [T878A]; assay: Protac activity at CRBN/AR T878A mutant in human LNCaP cells assessed as reduction in AR protein level at 100 nM measured after 6 hrs by western blot analysis
[3] = target: Androgen receptor (Homo sapiens) (UniProt P10275); assay: Induction of AR degradation in human VCaP cells at 100 nM treated for 3 hrs followed by treated with MG132 for 2 hrs
[4] = target: Androgen receptor (Homo sapiens) (UniProt P10275); assay: Induction of AR degradation in human LNCaP cells at 100 nM treated for 3 hrs followed by treated with MLN4924 for 2 hrs
[5] = target: Androgen receptor (Homo sapiens) (UniProt P10275); assay: Induction of AR degradation in human VCaP cells at 100 nM treated for 3 hrs followed by treated with ARi-184 for 2 hrs
[6] = target: Androgen receptor (Homo sapiens) (UniProt P10275); assay: Induction of AR degradation in human LNCaP cells at 100 nM treated for 3 hrs followed by treated with thalidomide for 2 hrs
[7] = target: Androgen receptor (Homo sapiens) (UniProt P10275); assay: Induction of AR degradation in human LNCaP cells at 100 nM treated for 3 hrs followed by treated with MG132 for 2 hrs
[8] = target: Androgen receptor (Homo sapiens) (UniProt P10275); assay: Induction of AR degradation in human VCaP cells at 100 nM treated for 3 hrs followed by treated with thalidomide for 2 hrs
[9] = target: Androgen receptor (Homo sapiens) (UniProt P10275); assay: Induction of AR degradation in human LNCaP cells at 100 nM treated for 3 hrs followed by treated with ARi-184 for 2 hrs
[10] = target: Androgen receptor (Homo sapiens) (UniProt P10275); assay: Induction of AR degradation in human VCaP cells at 100 nM treated for 3 hrs followed by treated with MLN4924 for 2 hrs

| Structure (SMILES) | Activity [1] | Activity [2] | Activity [3] | Activity [4] | Activity [5] | Activity [6] | Activity [7] | Activity [8] | Activity [9] | Activity [10] |
| --- | --- | --- | --- | --- | --- | --- | --- | --- | --- | --- |
| CC1(C)[C@H](NC(=O)c2ccc(N3CCC(N4CCN(c5ccc6c(c5)C(=O)N(C5CCC(=O)NC5=O)C6=O)CC4)CC3)cc2)C(C)(C)[C@H]1Oc1ccc(C#N)c(Cl)c1 (stereo partly drawn) | Active | Active |  |  |  |  |  |  |  |  |
| CC1(C)[C@H](NC(=O)c2ccc(N3CCN(C4CCN(c5ccc6c(c5)C(=O)N(C5CCC(=O)NC5=O)C6=O)CC4)CC3)cc2)C(C)(C)[C@H]1Oc1ccc(C#N)c(Cl)c1 (stereo partly drawn) | Active | Active |  |  |  |  |  |  |  |  |
| CC1(C)[C@H](NC(=O)c2ccc(N3CCN(CC4CN(c5ccc6c(c5)C(=O)N(C5CCC(=O)NC5=O)C6=O)C4)CC3)cc2)C(C)(C)[C@H]1Oc1ccc(C#N)c(Cl)c1 (stereo partly drawn) | Active | Active |  |  |  |  |  |  |  |  |
| CC1(C)[C@H](NC(=O)c2ccc(N3CCC(CN4CCN(c5ccc6c(c5)C(=O)N(C5CCC(=O)NC5=O)C6=O)CC4)CC3)cc2)C(C)(C)[C@H]1Oc1ccc(C#N)c(Cl)c1 (stereo partly drawn) | Active | Active |  |  |  |  |  |  |  |  |
| CC1(C)[C@H](NC(=O)c2ccc(N3CCN(CC4CCN(c5ccc6c(c5)C(=O)N(C5CCC(=O)NC5=O)C6=O)CC4)CC3)cc2)C(C)(C)[C@H]1Oc1ccc(C#N)c(Cl)c1 (stereo partly drawn) | Active | Active | inactive | inactive | inactive | inactive | inactive | inactive | inactive | inactive |
